Earlier results on one molecule are cited in US11634428B2, “Deuterated angiotensin-converting enzyme-2 (ACE-2) inhibitors” (priority 2021, dated 2023).

Sequences of proteins named here, by UniProt entry; tags and fusion partners are left off. Residues count along the entry.
UniProt Q9BYF1, 18-805: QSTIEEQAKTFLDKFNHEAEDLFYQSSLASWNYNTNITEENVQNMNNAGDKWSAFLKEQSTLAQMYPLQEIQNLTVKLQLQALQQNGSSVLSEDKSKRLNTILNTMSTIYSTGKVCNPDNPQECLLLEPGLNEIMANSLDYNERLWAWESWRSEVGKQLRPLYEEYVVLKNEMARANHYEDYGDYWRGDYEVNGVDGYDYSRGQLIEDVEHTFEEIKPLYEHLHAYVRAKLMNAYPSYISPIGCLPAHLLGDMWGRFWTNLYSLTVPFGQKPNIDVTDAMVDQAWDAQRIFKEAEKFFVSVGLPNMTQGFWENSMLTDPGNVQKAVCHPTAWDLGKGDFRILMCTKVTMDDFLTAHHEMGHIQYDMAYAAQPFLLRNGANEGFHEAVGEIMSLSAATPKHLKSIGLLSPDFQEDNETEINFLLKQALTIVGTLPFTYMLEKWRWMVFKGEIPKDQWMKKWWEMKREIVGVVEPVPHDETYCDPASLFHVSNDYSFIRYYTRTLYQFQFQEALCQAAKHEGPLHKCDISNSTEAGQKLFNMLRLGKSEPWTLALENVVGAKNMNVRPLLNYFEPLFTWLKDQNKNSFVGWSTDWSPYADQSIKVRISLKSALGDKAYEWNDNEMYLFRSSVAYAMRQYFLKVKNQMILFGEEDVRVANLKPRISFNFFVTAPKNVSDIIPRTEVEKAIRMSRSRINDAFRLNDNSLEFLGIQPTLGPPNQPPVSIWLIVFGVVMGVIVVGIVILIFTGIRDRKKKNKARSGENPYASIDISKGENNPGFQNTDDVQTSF

For the series, the target named is ACE-2 (Homo sapiens, UniProt Q9BYF1). The note with it: known ACE inhibitors.

Turning to `CCOC(=O)[C@H](CCc1ccccc1)N[C@@H](C)C(=O)N1CCC[C@H]1C(=O)O` [enalapril], the “suppression of the catalytic activity of ACE-2” value is listed as “not suppressed”.
